Bioassay records deposited in PubChem BioAssay by ICCB-Longwood Screening Facility, Harvard Medical School.
Only a selection was taken, and hits are over-represented in it overall.
GIV-Gai inh: GIV-Galpha-i interaction inhibition. 210,000 compounds, 0.42% hits. percent of control (FP), % (no concentration beside the values). Galpha-i3/FITC-GIV peptide fluorescence polarization, 90 min; active compounds read low; scaled: aluminum fluoride 0%, vehicle 100%. AID 1224905. P08753;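 active = replicate mean at 85% of control or lower, very high polarization wells dropped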;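 note: wells of about 15 µL received 100 nL stock; the first replicate is given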
HCMV UL50-53 inh: inhibitors of HCMV UL50-UL53 interaction, biochemical, HTRF; HCMV UL50-UL53 nuclear egress complex (human cytomegalovirus); normalized percent inhibition; inhibition, % (test concentration not listed); 190,000 compounds, 0.15% hits; in the data active = inhibition above about 27%, passing the limit was not always enough
GIV-Gai FP conf: inhibitors of GIV peptide binding to Galpha-i3, confirmation, biochemical, fluorescence polarization, FITC-GIV peptide, rat Galphai3. shares compounds with GIV-Gai inh. stronger effect = lower value. fluorescence polarization, mP at 100 µM. 580 compounds, 38% hits. AID 1259350, 2017;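 active = inhibition score of 15 or more, meaning 100 minus mean polarization as percent of control over three replicates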
GIV Gai AS conf: inhibitors of GIV binding to Galpha-i3, confirmation, orthogonal assay for GIV-Galpha-i inhibitor project, biochemical, AlphaScreen, His-GIV, GST-Galphai3. shares compounds with GIV-Gai inh. purified proteins, 90 min; stronger effect = lower value. AlphaScreen counts at 100 µM. 580 compounds, 39% hits;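 active = inhibition score at or above a set limit, where the score is 100 minus the three-replicate mean percent of control signal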
Large screens that a line does not name were inactive (follow-up assays come after a bar, where they were run).

Cc1ccc(C=C(C#N)C#N)o1	none
N#CC(C#N)=Cc1ccc(-c2ccccc2)o1	GIV-Gai inh -0.4
O=c1[nH]c(=S)[nH]c(O)c1CN1CCOCC1	none (no result: GIV-Gai inh)
COc1ccc(C=C2C(=O)NC(=O)NC2=O)cc1	none (no result: HCMV UL50-53 inh)
CCOC(=O)COc1ccc(/C=C2\C(=O)NC(=S)N(c3ccc(OC)cc3)C2=O)cc1OC	none
COc1cc(C=C2C(=O)NC(=O)NC2=O)ccc1OS(=O)(=O)c1ccccc1	HCMV UL50-53 inh 60
CCOC(=O)CSCCOc1ccc(C=C2C(=O)NC(=O)NC2=O)cc1OC	HCMV UL50-53 inh 60
O=C1NC2(CCNCC2)N=C1c1ccc(Cl)cc1	none
O=C1NC(c2cccnc2)Nc2ccccc21 (stereo unspecified)	none (no result: GIV-Gai inh)
COC(=O)CC1=C(C(=O)OC)C2(C(=O)N(C)c3ccccc32)C(C(=O)OC)=C(N)O1 (stereo unspecified)	none
CCN1C(=O)NC(=O)/C(=C\c2cn(CC(=O)O)c3ccccc23)C1=O	none
COC(=O)Cn1cc(C=C2C(=O)N(C)C(=O)N(C)C2=O)c2ccccc21	GIV-Gai inh -2.1
CCOC(=O)c1c(CN2CCN(C)CC2)n(Cc2ccccc2)c2cc(Br)c(O)cc12	none
Cc1cc(/C=C2\C(=O)NC(=S)N(c3ccccc3F)C2=O)c(C)n1-c1cc(C(=O)O)cc(C(=O)O)c1	none
CN1C(=O)[C@]23CC4=CC=C[C@H](O)[C@H]4N2C(=O)[C@@]1(CO)SS3	HCMV UL50-53 inh 55 (no result: GIV-Gai inh)
O=c1ccc2[nH]cc(C3=CCNCC3)c2[nH]1	none
C1=C(c2c[nH]c3ccccc23)CCNC1	GIV-Gai inh -23
C=CC1CN2CCC1C(C(O)c1ccnc3ccc(OC)cc13)C2 (stereo unspecified)	none
CN1CCc2c(C#N)c(N)n(N)c(=S)c2C1	GIV-Gai inh -103
CN1CCc2[nH]c(=S)c(C#N)c(-c3ccccc3)c2C1	none (no result: GIV-Gai inh)
C=CCc1cc(/C=C2\C(=O)NC(=O)N(c3ccc4c(c3)OCO4)C2=O)cc(OC)c1OCC(=O)O	none
COc1ccc(N2C(=O)NC(=O)/C(=C\c3cn(CC(=O)Nc4ccccc4)c4ccccc34)C2=O)cc1	none (no result: HCMV UL50-53 inh)
CCOc1ccc(N2C(=O)NC(=O)/C(=C/c3cn(CC(=O)Nc4ccccc4)c4ccccc34)C2=O)cc1	GIV-Gai inh -4.9
CCOc1ccc2nc(NC(=O)c3cccn(Cc4ccc(Br)cc4)c3=O)sc2c1	none (no result: HCMV UL50-53 inh)
Cn1c(=O)c2ncnnc2n(C)c1=O	GIV-Gai inh 77 | GIV-Gai FP conf 58 | GIV Gai AS conf inactive
C#CCOc1ccc2c(c1)c(C(=O)OCC)c(C)n2CCCC	none
O=C1NC(=O)N(Cc2ccccc2)C(=O)/C1=C/c1ccc(O)cc1	none
O=C1NC(=O)N(Cc2ccccc2)C(=O)/C1=C\c1ccccc1	GIV-Gai inh 15 (no result: HCMV UL50-53 inh) | GIV-Gai FP conf 31 | GIV Gai AS conf 14998
CCOC(=O)C1C2NC(=S)N[C@]1(C)Oc1ccccc12 (stereo partly specified)	none (no result: GIV-Gai inh)
CN(C)C(=O)Oc1cc(-c2ccccc2)nc(C2CC2)n1	none
O=C1NC(=S)NC(=O)C1=Cc1ccco1	GIV-Gai inh 73 | GIV-Gai FP conf 57 | GIV Gai AS conf 5695
CN1C(=O)NC(=O)/C(=C/c2ccco2)C1=O	none
O=C(O)CCC1C(=O)NC(=O)NC1=O	none
